According to PMC6195125 (European journal of medicinal chemistry, 2018):

tested on: P. falciparum 3D7; assay: not given; settings: read-out: P.falciparum IC50 Pf3D7; asexual blood stage, drug sensitive 3D7 line; mean (±SD), three independent assays

With “Methyl 4-((3,5-dimethyl-N-(2-oxo-2-(p-tolylamino)ethyl)benzamido)methyl)benzoate [Compound 1m]” as the compound, how does the IC50 read?
The IC50 was 0.033 µM.

tested on: normal human neonatal foreskin fibroblasts (NFFs); assay: Cytotoxicity against neonatal foreskin fibroblasts; assay type: cell-based; settings: Fibroblast, read-out: NFF IC50

Which IC50 does the source give for `CCCCNC(=O)CN(Cc1ccc(C(=O)NO)cc1)C(=O)c1ccc(N(C)C)cc1` [Compound 1v, N-(2-(Butylamino)-2-oxoethyl)-4-(dimethylamino)-N-(4-(hydroxycarbamoyl)benzyl)-benzamide] here?
Its IC50 is greater than 2 µM.

With `CN(C)c1cccc(C(=O)N(CC(=O)NC2CCCCC2)Cc2ccc(C(=O)NO)cc2)c1` [Compound 1p, N-(2-(Cyclohexylamino)-2-oxoethyl)-3-(dimethylamino)-N-(4-(hydroxycarbamoyl)-benzyl)benzamide] as the compound, how does the IC50 read?
The IC50 was greater than 10 µM.

With `Cc1ccc(NC(=O)CN(Cc2ccc(C(=O)NO)cc2)C(=O)c2cccc(N(C)C)c2)cc1` [Compound 1n, 3-(Dimethylamino)-N-(4-(hydroxycarbamoyl)benzyl)-N-(2-oxo-2-(p-tolylamino)-ethyl)benzamide] as the compound, how does the IC50 read?
The IC50 was greater than 10 µM.

With `CC(C)(C)NC(=O)CN(Cc1ccc(C(=O)NO)cc1)C(=O)c1cccc2ccccc12` [Compound 1c] as the compound, how does the IC50 read?
The IC50 was greater than 10 µM.

With `Cc1cccc(C(=O)N(CC(=O)NC2CCCCC2)Cc2ccc(C(=O)NO)cc2)c1` [Compound 1s, N-(2-(Cyclohexylamino)-2-oxoethyl)-N-(4-(hydroxycarbamoyl)benzyl)-3-methylbenzamide] as the compound, how does the IC50 read?
The IC50 was greater than 10 µM.

For `CCCCNC(=O)CN(Cc1ccc(C(=O)NO)cc1)C(=O)c1cccc(N(C)C)c1` [Compound 1w, N-(2-(Butylamino)-2-oxoethyl)-3-(dimethylamino)-N-(4-(hydroxycarbamoyl)benzyl)-benzamide], which IC50 is on record?
Its IC50 is greater than 10 µM.

Which IC50 does the source give for `Cc1ccc(C(=O)N(CC(=O)NC2CCCCC2)Cc2ccc(C(=O)NO)cc2)cc1` [Compound 1t, N-(2-(Cyclohexylamino)-2-oxoethyl)-N-(4-(hydroxycarbamoyl)benzyl)-4-methylbenzamide] here?
The IC50 was greater than 3 µM.

Which IC50 does the source give for `Cc1ccc(C(=O)N(CC(=O)NC(C)(C)C)Cc2ccc(C(=O)NO)cc2)cc1C` [Compound 1a] here?
Its IC50 is greater than 10 µM.

Which IC50 does the source give for `Cc1ccc(NC(=O)CN(Cc2ccc(C(=O)NO)cc2)C(=O)c2ccccc2)cc1` [Compound 1j] here?
The IC50 was greater than 10 µM.

Which IC50 does the source give for `Cc1ccc(C(=O)N(CC(=O)NC2CCCCC2)Cc2ccc(C(=O)NO)cc2)cc1C` [Compound 1q, N-(2-(Cyclohexylamino)-2-oxoethyl)-N-(4-(hydroxycarbamoyl)benzyl)-3,4-dimethyl-benzamide] here?
The IC50 was greater than 10 µM.

For `Cc1cc(C)cc(C(=O)N(CC(=O)NC(C)(C)C)Cc2ccc(C(=O)NO)cc2)c1` [Compound 1e], which IC50 is on record?
Its IC50 is greater than 10 µM.

With `CC(C)(C)NC(=O)CN(Cc1ccc(C(=O)NO)cc1)C(=O)c1ccccc1` [Compound 1b] as the compound, how does the IC50 read?
The IC50 was greater than 10 µM.

For `O=C(CN(Cc1ccc(C(=O)NO)cc1)C(=O)c1ccccc1)NC1CCCCC1` [Compound 1f], which IC50 is on record?
The IC50 was greater than 10 µM.

With `O=C(CN(Cc1ccc(C(=O)NO)cc1)C(=O)c1cccc2ccccc12)NC1CCCCC1` [Compound 1g] as the compound, how does the IC50 read?
Its IC50 is greater than 10 µM.

Which IC50 does the source give for `CC(C)c1ccc(C(=O)N(CC(=O)NC2CCCCC2)Cc2ccc(C(=O)NO)cc2)cc1` [Compound 1u, N-(2-(Cyclohexylamino)-2-oxoethyl)-N-(4-(hydroxycarbamoyl)benzyl)-4-isopropylbenzamide] here?
The IC50 was greater than 4 µM.

Which IC50 does the source give for `CN(C)c1cccc(C(=O)N(CC(=O)NC(C)(C)C)Cc2ccc(C(=O)NO)cc2)c1` [Compound 1o, N-(2-(tert-Butylamino)-2-oxoethyl)-3-(dimethylamino)-N-(4-(hydroxycarbamoyl)-benzyl)benzamide] here?
Its IC50 is greater than 10 µM.

With `Cc1ccccc1C(=O)N(CC(=O)NC1CCCCC1)Cc1ccc(C(=O)NO)cc1` [Compound 1r, N-(2-(Cyclohexylamino)-2-oxoethyl)-N-(4-(hydroxycarbamoyl)benzyl)-2-methylbenzamide] as the compound, how does the IC50 read?
The IC50 was greater than 10 µM.

With `CCCCNC(=O)CN(Cc1ccc(C(=O)NO)cc1)C(=O)c1cc(C)cc(C)c1` [Compound 1x, N-(2-(Butylamino)-2-oxoethyl)-N-(4-(hydroxycarbamoyl)benzyl)-3,5-dimethylbenzamide] as the compound, how does the IC50 read?
The IC50 was greater than 10 µM.

With `Cc1cc(C)cc(C(=O)N(CC(=O)NC2CCCCC2)Cc2ccc(C(=O)NO)cc2)c1` [Compound 1i] as the compound, how does the IC50 read?
The IC50 was greater than 10 µM.

tested on: normal human neonatal foreskin fibroblasts (NFFs); assay: not given; settings: read-out: NFF IC50; data previously reported; cited from earlier work

Which IC50 does the source give for `O=C(CCCCCCC(=O)Nc1ccccc1)NO` [SAHA, suberoylanilide hydroxamic acid] here?
The IC50 was 4.9 µM.

tested on: HepG2-A16-CD81EGFP cells; assay: HepG2 cytotoxicity bioluminescence assay; assay type: cell-based; settings: Homo sapiens, HepG2, 48 h, read-out: HepG2 IC50

Which IC50 does the source give for `O=C(CN(Cc1ccc(C(=O)NO)cc1)C(=O)c1cccc2ccccc12)NC1CCCCC1` [Compound 1g] here?
The IC50 was greater than 50 µM.

same assay, conditions: Homo sapiens, HepG2, read-out: HepG2 IC50

With `O=C(CN(Cc1ccc(C(=O)NO)cc1)C(=O)c1cccc2ccccc12)NC1CCCCC1` [Compound 1g] as the compound, how does the IC50 read?
The IC50 was greater than 50 µM.
